# Measured values taken from ChEMBL document CHEMBL1153183, “Pyridine containing M(1) positive allosteric modulators with reduced plasma protein binding” (Bioorg Med Chem Lett, 2010).
# The chains behind the UniProt entries cited, without tags or fusion partners. Where a name states a change or a piece, a line headed by the entry shows the natural chain unless it says otherwise.
# UniProt P11229: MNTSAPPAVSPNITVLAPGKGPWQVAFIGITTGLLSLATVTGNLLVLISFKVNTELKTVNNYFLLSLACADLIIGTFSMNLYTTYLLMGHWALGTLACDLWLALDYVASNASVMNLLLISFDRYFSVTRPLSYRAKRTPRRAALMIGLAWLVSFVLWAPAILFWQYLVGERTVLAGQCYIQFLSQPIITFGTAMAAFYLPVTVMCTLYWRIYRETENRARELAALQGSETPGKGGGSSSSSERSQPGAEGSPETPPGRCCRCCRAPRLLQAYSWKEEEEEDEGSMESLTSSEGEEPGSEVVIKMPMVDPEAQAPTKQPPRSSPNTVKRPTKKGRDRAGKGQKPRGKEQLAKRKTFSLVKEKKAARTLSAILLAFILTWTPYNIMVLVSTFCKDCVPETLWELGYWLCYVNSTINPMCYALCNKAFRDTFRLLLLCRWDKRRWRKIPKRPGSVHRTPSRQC
# Target: Muscarinic acetylcholine receptor M1 (Homo sapiens) (UniProt P11229)
# Experiment: Allosteric modulation of human muscarinic M1 receptor expressed in CHO cells assessed as effect on acetylcholine-induced calcium mobilization by FLIPR assay
# Assay type: functional, cell-based
# Summary of the method: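 Human M1-expressing CHO cells; test compound added with an EC20 concentration of acetylcholine; calcium mobilization read on FLIPR384. Inflection point (IP) derived; percent max is the maximum potentiated EC20 response. Values are the mean of at least two experiments; interassay variability ±30% for IP unless otherwise noted.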
row,IP [nM],Compound
1,131,CC(=O)Nc1cccc(-c2ccc(Cn3cc(C(=O)O)c(=O)c4cccc(F)c43)nc2)c1
2,951,O=C(O)c1cn(Cc2ccc(-c3cccnc3)nc2)c2c(F)cccc2c1=O
3,176,Cn1cc(-c2ccc(Cn3cc(C(=O)O)c(=O)c4c(F)cccc43)nc2)cn1
